The values below come from US20260272868A1 (priority 2022, published 2026).

The subject of experiment [1] is hallucinogenic effects of a 5-HT2A receptor agonist. Briefly: Extrapolated human MEC, MED and onset for reversal of hallucinogenic effects of a 5-HT2A receptor agonist. The conditions noted are these: for minimum efficacious dose (MED): human.
For experiment [2], the system named is head twitch response (HTR). Type of experiment: in vivo, mice. The conditions noted are these: higher doses of trazodone. Here is the method:
Male C57BL/6 mice (~7-9 weeks old) were used in these studies. Mice were housed 2 per cage under standard temperature- and humidity-controlled laboratory conditions with a 12-hour light/dark cycle. Mice had free access to food and water.
Both compounds were dissolved in saline vehicle at a dose volume of 10 mL/kg. Doses were corrected for salt form so that the dose administered represented free base.
Mice were randomly assigned to 1 of 6 treatment groups consisting of 2 subcutaneous injections (see Table 1), which were administered according to the schedule in FIG. 1. […] Behavior was videotaped by a camera (GoPro Hero 9) mounted above the testing chambers. Recorded video was uploaded for analysis of head twitch behavior. Number of head twitch responses (HTRs) was recorded for each animal for each 2-min bin. For each treatment group, the mean number of HTRs in each 2- or 10-min bin, and across the whole 30-min recording period, were analyzed.

Bounds are passed on as bounds.

As to `O=c1n(CCCN2CCN(c3cccc(Cl)c3)CC2)nc2ccccn12` [trazodone], in experiment [1] (intranasal and intramuscular routes, contemplated), the “time to peak reversal effect” value was 15 to 20 min. Further, the “time of peak reversal effect” value was < 5 min in experiment [1] (intravenous bolus) and 60 to 120 min in experiment [1] (oral trazodone, estimated, corresponding to Tmax). Also, the “minimum efficacious dose (MED)” value in experiment [1] (intravenous route, estimated) is < 12 mg; in experiment [1] (oral route, estimated), -12 mg. In experiment [2], the “HTR relative to baseline of vehicle pre-treated animals” value was “suppressed HTR below the baseline level”.
